Results on 1 molecule are retold here after publication PMC9388496 (Communications Biology, 2022).

The target in this test is T1, tumor necrosis factor (TNF)-α (Homo sapiens (; assumed), UniProt P01375).
T1 construct: TNF-α; also called TNF-a; cognate Ag; source: bought: Peprotech
As to the kind of experiment: SPR; VEGF-165 or TNF-α immobilised (~300 RU) on CM5 by amine coupling; 100 nM ABT injected at pH 5.5 (67 mM phosphate, 0.15 M NaCl, 0.005% Tween20), 20 μl/min. To be noted: both partners purified. In general terms: SPR reads the build-up and loss of mass on a sensor chip optically.

B1: infliximab (Remicade) (antibody, V domains shown)
VH: EVKLEESGGGLVQPGGSMKLSCVASGFIFSNHWMNWVRQSPEKGLEWVAEIRSKSINSATHYAESVKGRFTISRDDSKSAVYLQMTDLRTEDTGVYYCSRNYYGSTYDYWGQGTTLTVSS
VL: DILLTQSPAILSVSPGERVSFSCRASQFVGSSIHWYQQRTNGSPRLLIKYASESMSGIPSRFSGSGSGTDFTLSINTVESEDIADYYCQQSHSWPFTFGSGTNLEVK
notes: murine VH; human IgG1 heavy chain constant region; light chain with murine VL; Chimeric IgG1; www.drugbank.com is named among the repositories used; also called anti-TNF-α IgG1; source: bought: from the pharmacy; buffer-exchanged into PBS and run on SEC
Turning to B1, the binding result is reported as “binds”.
